By UniProt entry, the sequences of proteins in these tests, tags left out.
UniProt Q86U44, whole entry: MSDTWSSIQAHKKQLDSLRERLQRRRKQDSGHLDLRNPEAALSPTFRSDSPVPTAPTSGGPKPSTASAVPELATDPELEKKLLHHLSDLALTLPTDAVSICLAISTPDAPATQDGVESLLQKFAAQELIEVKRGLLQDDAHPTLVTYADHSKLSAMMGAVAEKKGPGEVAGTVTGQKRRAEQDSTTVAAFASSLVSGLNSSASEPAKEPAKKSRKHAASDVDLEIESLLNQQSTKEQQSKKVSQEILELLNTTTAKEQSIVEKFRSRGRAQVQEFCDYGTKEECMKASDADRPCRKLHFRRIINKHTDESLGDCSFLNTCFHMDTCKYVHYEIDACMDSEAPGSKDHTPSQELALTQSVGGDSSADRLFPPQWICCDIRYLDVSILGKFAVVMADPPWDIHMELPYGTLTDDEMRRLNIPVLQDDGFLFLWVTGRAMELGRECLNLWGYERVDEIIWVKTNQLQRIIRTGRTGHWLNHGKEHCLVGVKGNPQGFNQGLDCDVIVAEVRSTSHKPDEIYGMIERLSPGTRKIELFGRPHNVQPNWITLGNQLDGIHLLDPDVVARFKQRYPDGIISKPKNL
UniProt Q9HCE5, whole entry partner: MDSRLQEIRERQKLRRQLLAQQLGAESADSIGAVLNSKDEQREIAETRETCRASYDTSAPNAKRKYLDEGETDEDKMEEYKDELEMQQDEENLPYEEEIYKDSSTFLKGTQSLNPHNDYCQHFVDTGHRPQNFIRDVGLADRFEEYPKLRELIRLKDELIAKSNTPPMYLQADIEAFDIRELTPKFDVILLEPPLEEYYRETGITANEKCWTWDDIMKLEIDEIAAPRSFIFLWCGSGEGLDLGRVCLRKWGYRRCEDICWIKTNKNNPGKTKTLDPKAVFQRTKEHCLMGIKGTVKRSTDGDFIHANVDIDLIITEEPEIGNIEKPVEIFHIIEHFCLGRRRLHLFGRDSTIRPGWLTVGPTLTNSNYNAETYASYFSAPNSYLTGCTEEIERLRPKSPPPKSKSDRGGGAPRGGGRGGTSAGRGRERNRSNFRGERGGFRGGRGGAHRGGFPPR

These compounds were tested against METTL3/METTL14 (Homo sapiens, UniProt Q86U44) (assay: METTL3 enzymatic inhibition assay by homogeneous time-resolved fluorescence (HTRF)). Details: HTRF assay, racemic mixture.
Assay type: biochemical
`O=C(NCC1(O)CCCN(c2ncnc3[nH]ccc23)C1)c1ccc(CN2CC3(CCC3)C2C2CC2)cc1O` (racemic) was tested, and the IC50 was 0.74 µM.
`CC(C)C1N(Cc2ccc(C(=O)NCC3(O)CCCN(c4cc(NCc5cccc6sccc56)ncn4)C3)c(O)c2)CC12CCC2` (racemic) was tested, and the IC50 was 0.18 µM.
`CNc1cc(N2CCCC(O)(CNC(=O)c3ccc(CN4CC5(CCC5)C4C4CC4)cc3O)C2)ncn1` (racemic) was tested, and the IC50 was 4.9 µM.
`CC1(C)CCN(Cc2ccc(C(=O)NCC3(O)CCCN(c4ncnc5[nH]ccc45)C3)cc2)CC1` (racemic) gave an IC50 of 9.8 µM.
`CNc1cc(N2CCCC(O)(CNC(=O)c3ccc(CN4CCC(C)(C)CC4)cc3O)C2)ncn1` (racemic) showed an IC50 of 2.6 µM.
`CC1(C)CCN(Cc2ccc(C(=O)NCC3(O)CCCN(c4cc(N)ncn4)C3)c(O)c2)CC1` (racemic) gave an IC50 of 4.1 µM.
`Cc1cc(N2CCCC(O)(CNC(=O)c3ccc(CN4CCC(C)(C)CC4)cc3O)C2)ncn1` (racemic) showed an IC50 of 51 µM.
Work on `CC1(C)CCN(Cc2ccc(C(=O)NCC3(O)CCCN(c4ccncn4)C3)c(O)c2)CC1` (racemic) yielded an IC50 of 57 µM.

Same assay, conditions: ratio of IC50 of S isomer to R isomer
With `CC1(C)CCN(Cc2ccc(C(=O)NCC3(O)CCCN(c4ncnc5[nH]ccc45)C3)cc2)CC1` (racemic) the “S/R Ratio” value was 5.8.
`CNc1cc(N2CCCC(O)(CNC(=O)c3ccc(CN4CCC(C)(C)CC4)cc3O)C2)ncn1` (racemic) was tested, and the “S/R Ratio” value was 3.3.

Same assay, conditions: read-out: IC50 (µM) R; HTRF assay, R isomer
In the case of `CC1(C)CCN(Cc2ccc(C(=O)NCC3(O)CCCN(c4ncnc5[nH]ccc45)C3)cc2)CC1` (racemic), the IC50 is reported as 4.5 µM.
`CNc1cc(N2CCCC(O)(CNC(=O)c3ccc(CN4CCC(C)(C)CC4)cc3O)C2)ncn1` (racemic) showed an IC50 of 2.9 µM.

Same assay, conditions: read-out: IC50 (µM) S; HTRF assay, S isomer
Compound `CC1(C)CCN(Cc2ccc(C(=O)NCC3(O)CCCN(c4ncnc5[nH]ccc45)C3)cc2)CC1` (racemic) has an IC50 of 26 µM.
Work on `CNc1cc(N2CCCC(O)(CNC(=O)c3ccc(CN4CCC(C)(C)CC4)cc3O)C2)ncn1` (racemic) yielded an IC50 of 9.7 µM.

From paper PMC10436262, “Structure-Based Design of Inhibitors of the m^6A-RNA Writer Enzyme METTL3” (ACS Bio & Med Chem Au, 2023)
